This passage reports IC50 results from BindingDB's records for doi:10.1021/acschembio.6b00560 (Vanderbilt Institute of Chemical Biology, Vanderbilt …, 2016).

As usually defined, the IC50 is the concentration that gives 50% inhibition. A low value points to higher potency.

The target in this test is T1, Prostaglandin G/H synthase 2 (Mus musculus, UniProt Q05769).
T1 sequence (Q05769 whole entry): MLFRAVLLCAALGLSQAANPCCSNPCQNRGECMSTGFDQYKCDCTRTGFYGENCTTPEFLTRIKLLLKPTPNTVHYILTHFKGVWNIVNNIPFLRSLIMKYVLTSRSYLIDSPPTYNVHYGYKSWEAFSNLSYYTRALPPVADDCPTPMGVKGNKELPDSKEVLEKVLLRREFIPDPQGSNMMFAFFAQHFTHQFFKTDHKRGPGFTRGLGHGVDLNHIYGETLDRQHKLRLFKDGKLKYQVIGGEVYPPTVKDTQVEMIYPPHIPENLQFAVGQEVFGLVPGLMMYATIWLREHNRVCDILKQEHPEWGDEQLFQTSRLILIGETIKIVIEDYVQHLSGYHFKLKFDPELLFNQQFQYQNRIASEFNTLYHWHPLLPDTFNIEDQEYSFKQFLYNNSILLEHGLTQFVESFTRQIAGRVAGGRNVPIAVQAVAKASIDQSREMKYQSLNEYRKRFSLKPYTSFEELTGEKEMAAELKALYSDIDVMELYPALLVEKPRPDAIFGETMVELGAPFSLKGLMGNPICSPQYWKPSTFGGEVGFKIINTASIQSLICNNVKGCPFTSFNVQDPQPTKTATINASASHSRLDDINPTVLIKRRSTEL
The test can be described thus: COX Enzyme Inhibition Assay (Table 1). As for the experimental part: Each molecule was evaluated for its ability to inhibit purified mouse COX-2 or ovine COX-1 using a previously described assay. [Kalgutkar et al, J. Med. Chem., 43:2860-2870]
Compound `COc1ccc2c(c1)c(CC(=O)NCCCCOC(=O)CCC(=O)O[C@@H](C(=O)O[C@H]1C[C@@]3(O)[C@@H](OC(=O)c4ccccc4)[C@@H]4[C@]5(OC(C)=O)CO[C@@H]5C[C@H](O)[C@@]4(C)C(=O)[C@H](OC(C)=O)C(=C1C)C3(C)C)[C@@H](NC(=O)c1ccccc1)c1ccccc1)c(C)n2C(=O)c1ccc(Cl)cc1` [Cytotoxic conjugates, 3] gave a concentration for half-maximal inhibition (IC50) of 2200 nM.
The same measure for `COc1ccc2c(c1)c(CC(=O)Nc1ccc(CNC(=O)CCC(=O)O[C@@H](C(=O)O[C@H]3C[C@@]4(O)[C@@H](OC(=O)c5ccccc5)[C@@H]5[C@]6(OC(C)=O)CO[C@@H]6C[C@H](O)[C@@]5(C)C(=O)[C@H](OC(C)=O)C(=C3C)C4(C)C)[C@@H](NC(=O)c3ccccc3)c3ccccc3)cc1)c(C)n2C(=O)c1ccc(Cl)cc1` [Cytotoxic conjugates, 4]: 250 nM; for `COc1ccc2c(c1)c(CC(=O)NCCOC(=O)\C=C(C)/C=C/C=C(C)/C=C/C1=C(C)CCCC1(C)C)c(C)n2C(=O)c1ccc(Cl)cc1` [Cytotoxic conjugates, 5]: 450 nM.
Turning to `COc1ccc2c(c1)c(CC(=O)NCCNC(=O)CCC(=O)Nc1ccc(S(=O)(=O)Nc3nccs3)cc1)c(C)n2C(=O)c1ccc(Cl)cc1` [Cytotoxic conjugates, 8], the half-maximal inhibitory concentration (IC50) worked out at 920 nM.
The compound `COc1ccc2c(c1)c(CC(=O)NCCCCOC(=O)CCC(=O)O[C@@H]1c3cc4c(cc3[C@H](c3cc(OC)c(OC)c(OC)c3)[C@@H]3C(=O)OCC13)OCO4)c(C)n2C(=O)c1ccc(Cl)cc1` (some centres not stated) [Cytotoxic conjugates, 14] returned a half-maximal inhibitory concentration (IC50) of 140 nM.
`COc1ccc2c(c1)c(CC(=O)NCc1ccc(CNC(=O)CCC(=O)O[C@@H]3c4cc5c(cc4[C@H](c4cc(OC)c(OC)c(OC)c4)[C@@H]4C(=O)OCC34)OCO5)cc1)c(C)n2C(=O)c1ccc(Cl)cc1` (some centres not stated) [Cytotoxic conjugates, 15]: the half-maximal inhibitory concentration (IC50) turned out to be 180 nM.
The compound `COc1ccc2c(c1)c(CC(=O)NCCCCNC(=O)CCC(=O)OC1CCCCC1)c(C)n2C(=O)c1ccc(Cl)cc1` [Cytotoxic conjugates, 16] yielded an IC50 of 480 nM.
